This is an account of results in PMC6104465, “Synthesis and in vitro and in vivo evaluation of urea-based PSMA inhibitors with increased lipophilicity” (EJNMMI Research, 2018).

By UniProt entry, the sequences of proteins in these tests, tags left out. Residues count along the entry.
UniProt P02768, 25-609: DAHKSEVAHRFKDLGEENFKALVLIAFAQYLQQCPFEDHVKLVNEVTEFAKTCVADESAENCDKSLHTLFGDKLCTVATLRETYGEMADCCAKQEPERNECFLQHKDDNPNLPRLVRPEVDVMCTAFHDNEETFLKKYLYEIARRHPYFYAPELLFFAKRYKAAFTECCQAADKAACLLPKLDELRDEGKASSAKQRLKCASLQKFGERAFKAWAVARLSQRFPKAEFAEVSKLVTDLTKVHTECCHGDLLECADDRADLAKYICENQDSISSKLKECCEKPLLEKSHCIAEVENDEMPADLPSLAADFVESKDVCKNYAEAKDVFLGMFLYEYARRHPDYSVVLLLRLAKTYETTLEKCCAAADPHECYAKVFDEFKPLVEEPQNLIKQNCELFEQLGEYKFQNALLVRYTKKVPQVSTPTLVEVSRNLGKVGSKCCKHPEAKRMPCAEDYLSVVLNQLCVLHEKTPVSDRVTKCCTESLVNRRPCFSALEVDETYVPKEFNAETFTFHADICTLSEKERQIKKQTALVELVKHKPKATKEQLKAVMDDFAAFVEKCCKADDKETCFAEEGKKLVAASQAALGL

The target in data set [1] is T1, human serum albumin (Homo sapiens, UniProt P02768).
T1 construct: purchased Daicel Chemical Industries, purchased from Chiral Technologies Europe (Illkirch, France) Chiralpak HSA (5 μm, 50 × 3 mm)
As to the kind of experiment: human serum albumin binding, HPLC on Chiralpak HSA column. It is filed as in vitro ADME. The conditions noted are these: calibration reference substances; logarithmic K from the literature HSA binding; ref [3, 4].

Data set [2] addresses T1, human serum albumin. Further details: method as in Valko et. al. or Yamazaki et al. [3, 4]. The conditions noted are these: calibration reference substances; ref Valko et. al. or Yamazaki et al. [3, 4]; cited from earlier work.

With `NC(=O)N1c2ccccc2C=Cc2ccccc21` [Carbamazepine], the “Log K HSA” value in data set [1] was found to be 0.46. The “Lit. HSA% (literature value of human serum albumin binding)” value in data set [2] is listed as 75.00%.
